Columns and labels:
[1] = target: human adrenergic-α2A receptor (Homo sapiens, UniProt P08913); assay: Radioligand binding experiment for hα2A receptor ([3H]raulwolscine, CHO cell membranes); conditions: [3H]raulwolscine 1 nM, membranes of CHO cells transfected with human α2A receptor
[2] = target: human adrenergic-α2C receptor (Homo sapiens, UniProt P18825); assay: Radioligand binding experiment for α2C-adrenoceptor ([3H]raulwolscine, CHO cell membranes); conditions: [3H]raulwolscine 1 nM, membranes of CHO cells transfected with human α2C receptor
5HT-Transporter = 5HT-Transporter (Homo sapiens, UniProt P31645); assay: Binding experiment for the 5HT-transporter ([3H]paroxetine, human platelet membranes); conditions: [3H]paroxetine 0.5 nM

Amino acid sequences for entries named in this document (tags omitted).
UniProt P08913, whole entry: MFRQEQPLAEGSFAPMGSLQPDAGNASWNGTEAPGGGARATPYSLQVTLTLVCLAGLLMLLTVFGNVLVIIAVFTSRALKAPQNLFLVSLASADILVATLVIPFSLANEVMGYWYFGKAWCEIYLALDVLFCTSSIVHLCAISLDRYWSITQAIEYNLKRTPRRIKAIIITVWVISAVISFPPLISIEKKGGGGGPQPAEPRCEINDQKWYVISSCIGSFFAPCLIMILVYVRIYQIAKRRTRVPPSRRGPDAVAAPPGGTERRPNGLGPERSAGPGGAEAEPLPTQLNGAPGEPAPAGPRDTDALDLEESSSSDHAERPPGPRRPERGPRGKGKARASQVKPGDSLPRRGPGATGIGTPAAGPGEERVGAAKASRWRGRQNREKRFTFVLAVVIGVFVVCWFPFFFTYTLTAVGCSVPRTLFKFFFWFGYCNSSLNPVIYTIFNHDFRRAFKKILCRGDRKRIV
UniProt P18825, whole entry: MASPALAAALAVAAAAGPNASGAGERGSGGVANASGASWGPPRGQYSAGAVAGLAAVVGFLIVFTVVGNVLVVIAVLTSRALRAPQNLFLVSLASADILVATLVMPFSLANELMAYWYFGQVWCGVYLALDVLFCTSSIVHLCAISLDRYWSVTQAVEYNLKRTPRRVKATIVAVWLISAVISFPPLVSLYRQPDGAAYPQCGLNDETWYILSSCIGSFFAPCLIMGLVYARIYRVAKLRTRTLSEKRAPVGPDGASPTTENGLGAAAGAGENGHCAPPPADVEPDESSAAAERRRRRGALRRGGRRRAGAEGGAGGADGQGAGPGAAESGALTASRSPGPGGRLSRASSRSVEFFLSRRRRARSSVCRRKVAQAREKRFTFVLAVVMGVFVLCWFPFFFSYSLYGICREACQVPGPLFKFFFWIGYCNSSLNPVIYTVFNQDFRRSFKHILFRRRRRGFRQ
UniProt P31645, whole entry: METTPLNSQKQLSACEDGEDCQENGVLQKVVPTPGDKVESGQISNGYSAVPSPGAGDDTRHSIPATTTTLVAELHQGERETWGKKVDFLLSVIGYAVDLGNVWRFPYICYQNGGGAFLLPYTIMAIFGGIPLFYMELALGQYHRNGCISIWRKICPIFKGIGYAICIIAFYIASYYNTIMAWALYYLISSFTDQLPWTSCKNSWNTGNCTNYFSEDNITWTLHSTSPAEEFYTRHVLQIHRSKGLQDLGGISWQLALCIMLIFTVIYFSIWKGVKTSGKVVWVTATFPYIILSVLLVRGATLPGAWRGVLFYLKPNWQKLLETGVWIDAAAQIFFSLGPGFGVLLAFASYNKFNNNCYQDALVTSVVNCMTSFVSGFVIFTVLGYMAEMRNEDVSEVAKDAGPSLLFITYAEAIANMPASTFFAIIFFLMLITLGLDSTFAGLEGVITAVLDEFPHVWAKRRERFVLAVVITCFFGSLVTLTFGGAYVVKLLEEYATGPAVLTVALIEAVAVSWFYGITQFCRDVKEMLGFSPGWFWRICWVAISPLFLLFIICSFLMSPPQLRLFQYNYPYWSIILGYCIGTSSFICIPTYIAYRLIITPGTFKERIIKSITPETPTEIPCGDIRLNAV

Compound	h-α2A pIC50 [1]	h-α2C pIC50 [2]	h-5HTT pIC50 (5HT-Transporter)
CC(=O)Cn1ccnc(NC2CCN(CCCc3ccccc3)CC2)c1=O	5.8	6.1	<5
O=c1c(N2CCN(Cc3cccc(-c4ccccc4)c3)CC2)nccn1Cc1ccccc1	6.9	6.7	5.1

— patent US20100105694A1, “SUBSTITUTED PYRAZINONE DERIVATIVES FOR USE AS A MEDICINE” (priority 2006, published 2010)
